Key:
[1] = target: S1P1 (membranes prepared from S1P1/CHO cells) (Homo sapiens (Human), UniProt P21453); experiment: Receptor [35S] GTPγS binding assay (S1P1 GTPγS); format: biochemical; settings: read-out: S1P1 GTPγS; phosphate examples
[2] = target: S1P3 (membranes prepared from EDG3-Gal5-bla HEK293T cells) (Homo sapiens (Human), UniProt Q99500); experiment: Receptor [35S] GTPγS binding assay (S1P3 GTPγS); settings: read-out: S1P3 GTPγS; phosphate examples
[3] = target: human S1P1 (Homo sapiens (Human), UniProt P21453); experiment: S1P1 binding assay (33P-S1P radioligand competition, CHO cell membranes); settings: read-out: S1P1 Binding; phosphate examples
[4] = target: hS1P1/CHO cells (Homo sapiens (Human), UniProt P21453); experiment: hS1P1 ERK phosphorylation (S1P1 pERK); settings: read-out: S1P1 pERK; phosphate examples

The chains behind the UniProt entries cited, without tags or fusion partners.
UniProt P21453, whole entry: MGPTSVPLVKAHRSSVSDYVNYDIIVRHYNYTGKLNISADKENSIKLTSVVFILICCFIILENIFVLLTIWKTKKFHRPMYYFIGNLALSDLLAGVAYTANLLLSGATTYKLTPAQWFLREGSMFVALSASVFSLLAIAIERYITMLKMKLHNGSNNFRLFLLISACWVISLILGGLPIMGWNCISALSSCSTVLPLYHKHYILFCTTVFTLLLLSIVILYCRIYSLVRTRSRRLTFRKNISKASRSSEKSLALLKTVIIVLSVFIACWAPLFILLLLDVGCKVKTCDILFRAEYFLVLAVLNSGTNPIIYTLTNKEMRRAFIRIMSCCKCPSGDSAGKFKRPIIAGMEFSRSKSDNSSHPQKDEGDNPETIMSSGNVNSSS
UniProt Q99500, whole entry: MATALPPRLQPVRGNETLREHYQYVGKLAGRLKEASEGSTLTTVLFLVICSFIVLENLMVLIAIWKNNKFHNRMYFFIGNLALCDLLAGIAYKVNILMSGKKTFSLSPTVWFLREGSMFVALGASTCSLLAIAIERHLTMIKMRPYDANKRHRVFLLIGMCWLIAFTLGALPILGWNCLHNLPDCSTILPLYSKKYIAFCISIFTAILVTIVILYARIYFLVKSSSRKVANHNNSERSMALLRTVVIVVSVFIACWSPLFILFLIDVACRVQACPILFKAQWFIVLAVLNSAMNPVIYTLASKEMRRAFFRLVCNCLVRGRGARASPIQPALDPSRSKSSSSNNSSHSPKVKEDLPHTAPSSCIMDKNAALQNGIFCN

EC50 [1]: 100 to 1000 nM
EC50 [2]: > 625 nM
IC50 [3]: 10 to 100 nM
EC50 [4]: 10 to 100 nM
Structure (SMILES): [2H]C1([2H])C(/C=C/CCCC)=Cc2ccc([C@H]3CC[C@](N)(COP(=O)(O)O)C3)cc2C1([2H])[2H]
